Among the data in PubChem BioAssay AID567 (The Scripps Research Institute Molecular Screening Center, 2006) are activation values, retold here.

Amino acid sequences for entries named in this document (tags omitted).
UniProt P08908, whole entry, looked up: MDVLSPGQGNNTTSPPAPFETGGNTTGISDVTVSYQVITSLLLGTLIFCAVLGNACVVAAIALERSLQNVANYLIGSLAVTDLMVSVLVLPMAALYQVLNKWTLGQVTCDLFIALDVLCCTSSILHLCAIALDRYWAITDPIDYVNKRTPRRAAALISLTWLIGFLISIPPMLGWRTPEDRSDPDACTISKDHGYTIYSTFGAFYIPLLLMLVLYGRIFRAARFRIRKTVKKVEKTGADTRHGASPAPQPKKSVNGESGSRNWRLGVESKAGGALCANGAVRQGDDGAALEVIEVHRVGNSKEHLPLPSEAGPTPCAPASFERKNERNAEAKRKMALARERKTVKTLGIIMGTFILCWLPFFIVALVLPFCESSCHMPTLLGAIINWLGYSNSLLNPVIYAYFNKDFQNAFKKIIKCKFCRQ

The list shows a part of the results, in another mix than the full data. Activity calls are given as the source filed them.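 Rule for the calls: active = activation above the screen-wide mean activation plus 3 SD (cut at about 19% in these data); inactive = the rest.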

In this experiment the target is 5-hydroxytryptamine receptor 1A (Homo sapiens) (UniProt P08908). Description: agonism at serotonin HTR1A receptor – cell-based, CHO, Ga15 NFAT-bla reporter, primary screen (AID 567).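 Note: 0% = DMSO wells and 100% = 5-CT at EC100.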 Conditions: CHO 5-HT1a Ga15 NFAT-bla reporter, FRET ratio; at 10 µM; hits give high values; 0% basal, 100% maximal reference agonist.
Take `O=C(COc1ccccc1)OC1CN2CCC1CC2` (stereo not given): the activation is inactive: -2.87%.
Next, `COP1(=S)c2c(C)nn(CCC#N)c2N=C(c2ccc(F)cc2)N1C` (stereo not given): inactive: 0.51%; `O=C(OC1CN2CCC1CC2)C12CC3CC(CC(C3)C1)C2` (stereo not given): inactive: 0.99%.
The same measure for `CCOP1(=S)c2c(C)nn(CCC#N)c2N=C(c2ccccc2F)N1C` (stereo not given): inactive: -0.69%; for `O=P(Nc1nccs1)(c1ccccc1)c1nc2ccccc2s1` (stereo not given): inactive: -6.69%.
Regarding `CCOP1(=S)c2c(C)nn(CCC#N)c2N=C(c2ccc(F)cc2)N1C` (stereo not given), the activation is inactive: -2.06%.
The same measure for `Cc1cccc(OCC(=O)OC2CN3CCC2CC3)c1` (stereo not given): inactive: -0.2%; for `Clc1n[nH]nc1-c1nn[nH][15n]1`: inactive: -0.22%; for `O=P1(Nc2ccccn2)COc2ccccc2OC1`: inactive: 0.81%.
The same measure for `Cc1nn(-c2ccccc2)c2c1P(=O)(N1CCOCC1)N(C)C(c1ccccc1)=N2` (stereo not given): inactive: -0.42%; for `O=P1(Nc2ccc(Br)cn2)COc2ccccc2OC1`: inactive: 2.2%.
`Cc1ccc(OCC(=O)OC2CN3CCC2CC3)cc1` (stereo not given): the activation is inactive: -0.35%.
With `O=P1(Nc2ncccn2)COc2ccccc2OC1`, the activation was inactive: 0.37%.
Next, `O=C(OC1CN2CCC1CC2)c1cccc(Cl)c1` (stereo not given): inactive: -0.7%; `c1nnnn1CCn1cnnn1`: inactive: 0.35%; `O=P(Nc1nccs1)(c1ccccc1)c1ccccc1`: inactive: -0.84%.
The same measure for `O=P1(Nc2nc3ccc(Cl)cc3s2)COc2ccccc2O1` (stereo not given): inactive: 0.34%; for `COC(=O)c1cc2c(s1)N=C(c1ccccc1)N(C)P2(=O)N1CCOCC1` (stereo not given): inactive: -0.86%; for `Cc1c2non([O-])c-2c(C)[n+](=O)[n+]1[O-]`: inactive: -1.54%.
With `CCc1nc2c(n1)c1c(non1O)c1c2no[n+]1[O-]`, the activation was inactive: -1.23%.
